Reference: ChEMBL document CHEMBL6153175, “Discovery of Isobenzofuran-1(3H)-one Derivatives as Selective TREK-1 Inhibitors with In Vitro and In Vivo Neuroprotective Effects” (J Med Chem, 2025)
Activity calls are given as the source filed them. The calls are words filed in the database; no cut-off is given here.

The chains behind the UniProt entries cited, without tags or fusion partners. Where a name states a change or a piece, a line headed by the entry shows the natural chain unless it says otherwise.
UniProt P16389, whole entry: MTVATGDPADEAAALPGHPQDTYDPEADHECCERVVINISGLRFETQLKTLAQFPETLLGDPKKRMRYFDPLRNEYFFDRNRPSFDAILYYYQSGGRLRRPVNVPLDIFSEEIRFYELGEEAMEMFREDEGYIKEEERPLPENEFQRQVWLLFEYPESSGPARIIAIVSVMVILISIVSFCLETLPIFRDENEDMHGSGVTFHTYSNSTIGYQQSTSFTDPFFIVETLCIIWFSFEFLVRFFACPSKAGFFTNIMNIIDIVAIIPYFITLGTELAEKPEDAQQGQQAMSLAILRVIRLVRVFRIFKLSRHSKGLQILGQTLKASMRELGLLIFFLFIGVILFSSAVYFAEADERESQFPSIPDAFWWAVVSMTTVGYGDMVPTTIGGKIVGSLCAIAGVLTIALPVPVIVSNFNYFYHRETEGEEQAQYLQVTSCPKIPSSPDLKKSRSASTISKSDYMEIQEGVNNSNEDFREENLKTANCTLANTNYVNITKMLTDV
UniProt P35499, whole entry, looked up: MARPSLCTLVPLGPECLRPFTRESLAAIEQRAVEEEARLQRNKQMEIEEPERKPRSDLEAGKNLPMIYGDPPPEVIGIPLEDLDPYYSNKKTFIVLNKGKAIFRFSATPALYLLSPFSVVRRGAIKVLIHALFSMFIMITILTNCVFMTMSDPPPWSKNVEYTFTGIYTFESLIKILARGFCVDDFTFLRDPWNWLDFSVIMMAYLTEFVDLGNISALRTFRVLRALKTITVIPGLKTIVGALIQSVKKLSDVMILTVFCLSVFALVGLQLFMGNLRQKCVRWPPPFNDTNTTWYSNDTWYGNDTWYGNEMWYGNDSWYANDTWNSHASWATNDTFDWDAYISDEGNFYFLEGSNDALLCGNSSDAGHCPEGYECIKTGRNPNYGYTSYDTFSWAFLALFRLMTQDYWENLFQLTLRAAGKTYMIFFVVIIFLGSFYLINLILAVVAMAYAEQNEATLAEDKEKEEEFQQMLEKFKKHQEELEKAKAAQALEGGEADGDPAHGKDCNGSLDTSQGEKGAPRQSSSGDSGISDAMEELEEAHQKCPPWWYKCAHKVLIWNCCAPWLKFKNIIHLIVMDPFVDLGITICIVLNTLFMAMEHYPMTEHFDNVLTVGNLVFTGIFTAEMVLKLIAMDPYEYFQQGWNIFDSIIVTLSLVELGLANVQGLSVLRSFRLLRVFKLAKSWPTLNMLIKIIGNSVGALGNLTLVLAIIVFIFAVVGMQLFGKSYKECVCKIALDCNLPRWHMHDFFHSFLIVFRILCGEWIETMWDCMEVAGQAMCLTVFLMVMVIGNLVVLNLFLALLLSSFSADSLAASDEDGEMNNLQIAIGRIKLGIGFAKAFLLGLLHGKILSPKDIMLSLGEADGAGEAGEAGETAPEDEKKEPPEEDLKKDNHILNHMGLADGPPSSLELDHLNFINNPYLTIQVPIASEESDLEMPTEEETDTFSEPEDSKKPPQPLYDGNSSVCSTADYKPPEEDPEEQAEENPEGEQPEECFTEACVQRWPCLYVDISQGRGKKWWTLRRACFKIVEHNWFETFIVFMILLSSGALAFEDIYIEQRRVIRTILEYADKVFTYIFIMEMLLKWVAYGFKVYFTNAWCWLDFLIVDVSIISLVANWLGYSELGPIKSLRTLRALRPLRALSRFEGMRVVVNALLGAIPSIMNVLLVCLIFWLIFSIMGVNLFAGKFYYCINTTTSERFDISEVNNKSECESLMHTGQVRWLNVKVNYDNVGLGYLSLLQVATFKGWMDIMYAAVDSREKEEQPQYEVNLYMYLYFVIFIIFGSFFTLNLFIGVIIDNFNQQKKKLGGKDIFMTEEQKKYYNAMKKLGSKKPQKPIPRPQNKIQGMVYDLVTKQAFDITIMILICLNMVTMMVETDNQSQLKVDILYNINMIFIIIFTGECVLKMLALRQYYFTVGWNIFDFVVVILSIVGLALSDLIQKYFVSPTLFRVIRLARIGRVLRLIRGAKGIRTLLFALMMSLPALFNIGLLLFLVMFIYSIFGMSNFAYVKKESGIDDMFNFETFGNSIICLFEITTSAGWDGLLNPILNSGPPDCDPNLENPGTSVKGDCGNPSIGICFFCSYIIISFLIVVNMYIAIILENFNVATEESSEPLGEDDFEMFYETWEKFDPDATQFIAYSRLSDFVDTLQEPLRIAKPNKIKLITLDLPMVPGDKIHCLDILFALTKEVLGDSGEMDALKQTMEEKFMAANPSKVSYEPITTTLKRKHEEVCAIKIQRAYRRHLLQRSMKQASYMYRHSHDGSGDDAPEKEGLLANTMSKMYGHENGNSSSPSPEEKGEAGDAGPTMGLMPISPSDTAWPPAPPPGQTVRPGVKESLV
UniProt Q9Y5Y9, whole entry, looked up: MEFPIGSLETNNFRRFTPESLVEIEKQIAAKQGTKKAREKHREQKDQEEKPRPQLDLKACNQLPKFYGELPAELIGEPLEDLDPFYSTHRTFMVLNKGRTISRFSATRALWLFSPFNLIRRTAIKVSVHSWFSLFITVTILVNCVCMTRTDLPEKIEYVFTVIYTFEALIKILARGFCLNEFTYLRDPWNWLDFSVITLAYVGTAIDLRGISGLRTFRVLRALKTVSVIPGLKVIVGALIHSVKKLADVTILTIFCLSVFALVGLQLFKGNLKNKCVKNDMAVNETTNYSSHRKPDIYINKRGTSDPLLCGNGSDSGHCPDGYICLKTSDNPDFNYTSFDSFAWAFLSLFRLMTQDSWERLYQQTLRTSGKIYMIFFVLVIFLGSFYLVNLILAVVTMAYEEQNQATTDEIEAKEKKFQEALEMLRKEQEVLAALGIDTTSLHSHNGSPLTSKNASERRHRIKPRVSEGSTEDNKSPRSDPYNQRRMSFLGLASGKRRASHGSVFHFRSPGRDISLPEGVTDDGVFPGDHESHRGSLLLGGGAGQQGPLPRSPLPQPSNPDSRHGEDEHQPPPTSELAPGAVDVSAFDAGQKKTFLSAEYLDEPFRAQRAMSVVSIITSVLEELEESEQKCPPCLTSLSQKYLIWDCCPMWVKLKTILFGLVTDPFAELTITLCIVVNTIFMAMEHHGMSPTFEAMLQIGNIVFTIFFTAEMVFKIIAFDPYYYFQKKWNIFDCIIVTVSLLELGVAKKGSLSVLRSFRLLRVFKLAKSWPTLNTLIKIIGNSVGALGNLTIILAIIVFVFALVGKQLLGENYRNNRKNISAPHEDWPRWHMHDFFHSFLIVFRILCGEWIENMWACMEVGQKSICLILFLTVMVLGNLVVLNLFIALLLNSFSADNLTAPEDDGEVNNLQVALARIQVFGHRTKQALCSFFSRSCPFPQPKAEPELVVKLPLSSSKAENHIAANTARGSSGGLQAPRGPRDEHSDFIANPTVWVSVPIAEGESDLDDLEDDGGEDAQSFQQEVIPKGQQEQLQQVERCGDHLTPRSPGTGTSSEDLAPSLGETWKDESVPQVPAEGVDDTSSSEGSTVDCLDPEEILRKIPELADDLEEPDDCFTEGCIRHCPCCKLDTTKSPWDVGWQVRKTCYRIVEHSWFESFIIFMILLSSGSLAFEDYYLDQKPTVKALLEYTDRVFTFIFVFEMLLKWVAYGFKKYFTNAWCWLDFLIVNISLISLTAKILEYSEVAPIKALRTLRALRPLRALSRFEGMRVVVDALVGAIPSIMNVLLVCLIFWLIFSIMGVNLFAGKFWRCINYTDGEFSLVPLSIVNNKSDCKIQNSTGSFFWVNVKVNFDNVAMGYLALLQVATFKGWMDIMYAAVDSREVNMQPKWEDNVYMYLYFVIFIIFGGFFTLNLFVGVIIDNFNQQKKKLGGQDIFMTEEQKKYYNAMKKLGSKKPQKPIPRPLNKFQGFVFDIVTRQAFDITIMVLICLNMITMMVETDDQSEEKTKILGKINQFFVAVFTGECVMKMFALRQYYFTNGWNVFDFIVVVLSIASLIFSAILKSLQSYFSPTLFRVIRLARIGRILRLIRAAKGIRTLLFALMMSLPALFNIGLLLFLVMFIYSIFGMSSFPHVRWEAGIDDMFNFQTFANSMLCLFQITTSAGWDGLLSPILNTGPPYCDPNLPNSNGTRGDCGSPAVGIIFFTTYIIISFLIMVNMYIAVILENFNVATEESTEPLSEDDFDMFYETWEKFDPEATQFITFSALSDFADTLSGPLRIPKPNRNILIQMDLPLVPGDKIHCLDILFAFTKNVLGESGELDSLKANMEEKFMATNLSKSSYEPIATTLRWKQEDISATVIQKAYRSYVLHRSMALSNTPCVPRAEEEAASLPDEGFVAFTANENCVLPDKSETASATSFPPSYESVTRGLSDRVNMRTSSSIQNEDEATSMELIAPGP
UniProt Q13507: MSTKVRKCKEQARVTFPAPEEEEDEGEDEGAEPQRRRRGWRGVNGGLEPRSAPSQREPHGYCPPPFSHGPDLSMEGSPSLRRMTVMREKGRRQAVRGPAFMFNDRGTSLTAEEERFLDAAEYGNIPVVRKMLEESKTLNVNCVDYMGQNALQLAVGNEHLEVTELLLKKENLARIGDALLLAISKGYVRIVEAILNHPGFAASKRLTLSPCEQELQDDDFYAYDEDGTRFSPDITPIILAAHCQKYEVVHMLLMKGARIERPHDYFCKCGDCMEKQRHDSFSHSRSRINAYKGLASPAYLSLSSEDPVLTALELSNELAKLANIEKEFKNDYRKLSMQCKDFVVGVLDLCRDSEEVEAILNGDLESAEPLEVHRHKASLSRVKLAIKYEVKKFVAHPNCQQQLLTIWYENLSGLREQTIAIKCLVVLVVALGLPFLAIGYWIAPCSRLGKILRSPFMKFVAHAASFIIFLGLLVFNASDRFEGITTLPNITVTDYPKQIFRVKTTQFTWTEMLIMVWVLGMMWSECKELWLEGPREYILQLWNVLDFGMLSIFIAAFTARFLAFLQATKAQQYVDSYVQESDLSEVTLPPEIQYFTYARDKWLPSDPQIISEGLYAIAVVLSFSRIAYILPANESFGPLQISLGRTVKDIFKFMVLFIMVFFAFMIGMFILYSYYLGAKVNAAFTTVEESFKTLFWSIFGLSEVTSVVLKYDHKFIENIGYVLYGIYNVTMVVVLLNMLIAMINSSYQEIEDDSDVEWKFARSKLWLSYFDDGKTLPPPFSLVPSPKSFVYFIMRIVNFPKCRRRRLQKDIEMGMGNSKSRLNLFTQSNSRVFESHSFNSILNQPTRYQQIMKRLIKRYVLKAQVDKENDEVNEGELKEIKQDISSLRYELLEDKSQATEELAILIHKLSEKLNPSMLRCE
UniProt Q9UL62: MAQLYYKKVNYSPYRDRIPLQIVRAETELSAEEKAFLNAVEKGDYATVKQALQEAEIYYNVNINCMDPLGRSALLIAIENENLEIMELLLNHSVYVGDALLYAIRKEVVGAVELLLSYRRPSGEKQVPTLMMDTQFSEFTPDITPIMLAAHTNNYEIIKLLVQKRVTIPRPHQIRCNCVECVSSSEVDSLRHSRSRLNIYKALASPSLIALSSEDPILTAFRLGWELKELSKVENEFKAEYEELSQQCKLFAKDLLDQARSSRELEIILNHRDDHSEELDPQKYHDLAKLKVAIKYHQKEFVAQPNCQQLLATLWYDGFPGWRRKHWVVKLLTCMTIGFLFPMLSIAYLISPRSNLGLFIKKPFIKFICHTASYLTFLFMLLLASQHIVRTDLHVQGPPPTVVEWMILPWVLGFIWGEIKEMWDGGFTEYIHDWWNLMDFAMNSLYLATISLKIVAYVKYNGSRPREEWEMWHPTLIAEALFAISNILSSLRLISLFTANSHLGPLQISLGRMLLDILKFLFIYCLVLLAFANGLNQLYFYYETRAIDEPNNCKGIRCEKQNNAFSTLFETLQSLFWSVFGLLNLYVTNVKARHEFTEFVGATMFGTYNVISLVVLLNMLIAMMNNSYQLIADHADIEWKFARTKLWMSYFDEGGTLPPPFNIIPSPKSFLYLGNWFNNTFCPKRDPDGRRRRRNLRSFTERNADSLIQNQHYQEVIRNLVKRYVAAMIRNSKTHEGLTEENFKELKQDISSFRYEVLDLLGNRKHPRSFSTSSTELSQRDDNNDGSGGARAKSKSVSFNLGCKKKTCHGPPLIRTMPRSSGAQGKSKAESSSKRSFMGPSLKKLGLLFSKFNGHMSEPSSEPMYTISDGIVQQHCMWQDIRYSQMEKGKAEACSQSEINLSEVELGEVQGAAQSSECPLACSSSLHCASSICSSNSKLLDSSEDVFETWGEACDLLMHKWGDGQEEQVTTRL
UniProt Q96LB2: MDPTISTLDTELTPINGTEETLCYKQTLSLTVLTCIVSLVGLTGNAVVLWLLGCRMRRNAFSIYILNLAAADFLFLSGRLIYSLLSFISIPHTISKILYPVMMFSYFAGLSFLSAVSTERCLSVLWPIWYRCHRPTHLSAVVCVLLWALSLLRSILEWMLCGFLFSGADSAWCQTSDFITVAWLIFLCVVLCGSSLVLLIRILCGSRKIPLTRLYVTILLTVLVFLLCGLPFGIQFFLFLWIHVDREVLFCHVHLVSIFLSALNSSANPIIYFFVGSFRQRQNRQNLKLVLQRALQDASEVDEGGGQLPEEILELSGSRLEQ

How the values were obtained:
[1] = biological target: Potassium voltage-gated channel subfamily A member 2 (Homo sapiens) (UniProt P16389); assay: Inhibition of human Kv1.2 channel expressed in HEK293 cells at 30 uM; type: cell-based
[2] = biological target: Potassium voltage-gated channel subfamily A member 2 (Homo sapiens) (UniProt P16389); assay: Activation of human Kv1.2 channel expressed in HEK293 cells at 30 uM; type: cell-based
[3] = biological target: Potassium voltage-gated channel subfamily A member 3 (Homo sapiens) (UniProt P22001); assay: Inhibition of human Kv1.3 channel expressed in HEK293 cells at 30 uM; type: cell-based
[4] = biological target: Potassium voltage-gated channel subfamily A member 3 (Homo sapiens) (UniProt P22001); assay: Activation of human Kv1.3 channel expressed in HEK293 cells at 30 uM; type: cell-based
[5] = biological target: Potassium voltage-gated channel subfamily A member 5 (Homo sapiens) (UniProt P22460); assay: Inhibition of human Kv1.5 channel expressed in HEK293 cells at 30 uM; type: cell-based
[6] = biological target: Potassium voltage-gated channel subfamily A member 5 (Homo sapiens) (UniProt P22460); assay: Activation of human Kv1.5 channel expressed in HEK293 cells at 30 uM; type: cell-based
[7] = biological target: Potassium voltage-gated channel subfamily B member 1 (Rattus norvegicus) (UniProt P15387); assay: Inhibition of rat Kv2.1 channel expressed in HEK293 cells at 30 uM; type: cell-based
[8] = biological target: Potassium voltage-gated channel subfamily B member 1 (Rattus norvegicus) (UniProt P15387); assay: Activation of rat Kv2.1 channel expressed in HEK293 cells at 30 uM; type: cell-based
[9] = biological target: Voltage-gated potassium channel KCNC1 (Homo sapiens) (UniProt P48547); assay: Inhibition of human Kv3.1 channel expressed in HEK293 cells at 30 uM; type: cell-based
[10] = biological target: Voltage-gated potassium channel KCNC1 (Homo sapiens) (UniProt P48547); assay: Activation of human Kv3.1 channel expressed in HEK293 cells at 30 uM; type: cell-based
[11] = biological target: A-type voltage-gated potassium channel KCND2 (Rattus norvegicus) (UniProt Q63881); assay: Inhibition of rat Kv4.2 channel expressed in HEK293 cells at 30 uM; type: cell-based
[12] = biological target: A-type voltage-gated potassium channel KCND2 (Rattus norvegicus) (UniProt Q63881); assay: Activation of rat Kv4.2 channel expressed in HEK293 cells at 30 uM; type: cell-based
[13] = biological target: Sodium channel protein type 1 subunit alpha (Homo sapiens) (UniProt P35498); assay: Inhibition of human Nav1.1 channel expressed in HEK293T cell membrane at 30 uM; type: cell membranes
[14] = biological target: Sodium channel protein type 1 subunit alpha (Homo sapiens) (UniProt P35498); assay: Activation of human Nav1.1 channel expressed in HEK293T cell membrane at 30 uM; type: cell membranes
[15] = biological target: Sodium channel protein type 2 subunit alpha (Homo sapiens) (UniProt Q99250); assay: Inhibition of human Nav1.2 channel expressed in HEK293T cell membrane at 30 uM; type: cell membranes
[16] = biological target: Sodium channel protein type 2 subunit alpha (Homo sapiens) (UniProt Q99250); assay: Activation of human Nav1.2 channel expressed in HEK293T cell membrane at 30 uM; type: cell membranes
[17] = biological target: Sodium channel protein type 4 subunit alpha (Homo sapiens) (UniProt P35499); assay: Inhibition of human Nav1.4 channel expressed in HEK293T cell membrane at 30 uM; type: cell membranes
[18] = biological target: Sodium channel protein type 4 subunit alpha (Homo sapiens) (UniProt P35499); assay: Activation of human Nav1.4 channel expressed in HEK293T cell membrane at 30 uM; type: cell membranes
[19] = biological target: Sodium channel protein type 8 subunit alpha (Homo sapiens) (UniProt Q9UQD0); assay: Inhibition of human Nav1.6 channel expressed in HEK293T cell membrane at 30 uM; type: cell membranes
[20] = biological target: Sodium channel protein type 8 subunit alpha (Homo sapiens) (UniProt Q9UQD0); assay: Activation of human Nav1.6 channel expressed in HEK293T cell membrane at 30 uM; type: cell membranes
[21] = biological target: Sodium channel protein type 9 subunit alpha (Homo sapiens) (UniProt Q15858); assay: Inhibition of human Nav1.7 channel expressed in HEK293T cell membrane at 30 uM; type: cell membranes
[22] = biological target: Sodium channel protein type 9 subunit alpha (Homo sapiens) (UniProt Q15858); assay: Activation of human Nav1.7 channel expressed in HEK293T cell membrane at 30 uM; type: cell membranes
[23] = biological target: Sodium channel protein type 10 subunit alpha (Homo sapiens) (UniProt Q9Y5Y9); assay: Inhibition of human Nav1.8 channel expressed in HEK293T cell membrane at 30 uM; type: cell membranes
[24] = biological target: Sodium channel protein type 10 subunit alpha (Homo sapiens) (UniProt Q9Y5Y9); assay: Activation of human Nav1.8 channel expressed in HEK293T cell membrane at 30 uM; type: cell membranes
[25] = biological target: Transient receptor potential cation channel subfamily V member 2 (Mus musculus) (UniProt Q9WTR1); assay: Inhibition of mouse TRPV2 expressed in HEK293T cell membrane at 30 uM in presence of 2-APB; type: cell membranes
[26] = biological target: Transient receptor potential cation channel subfamily V member 2 (Mus musculus) (UniProt Q9WTR1); assay: Activation of mouse TRPV2 expressed in HEK293T cell membrane at 30 uM in presence of 2-APB; type: cell membranes
[27] = biological target: Transient receptor potential cation channel subfamily V member 4 (Homo sapiens) (UniProt Q9HBA0); assay: Inhibition of human TRPV4 expressed in HEK293T cell membrane at 30 uM in presence of GSK; type: cell membranes
[28] = biological target: Transient receptor potential cation channel subfamily V member 4 (Homo sapiens) (UniProt Q9HBA0); assay: Activation of human TRPV4 expressed in HEK293T cell membrane at 30 uM in presence of GSK; type: cell membranes
[29] = biological target: Transient receptor potential cation channel subfamily M member 8 (Homo sapiens) (UniProt Q7Z2W7); assay: Inhibition of human TRPM8 expressed in HEK293T cell membrane at 30 uM in presence of menthol; type: cell membranes
[30] = biological target: Transient receptor potential cation channel subfamily M member 8 (Homo sapiens) (UniProt Q7Z2W7); assay: Activation of human TRPM8 expressed in HEK293T cell membrane at 30 uM in presence of menthol; type: cell membranes
[31] = biological target: Short transient receptor potential channel 3 (Homo sapiens) (UniProt Q13507); assay: Inhibition of human TRPC3 expressed in HEK293T cell membrane at 30 uM in presence of OAG; type: cell membranes
[32] = biological target: Short transient receptor potential channel 3 (Homo sapiens) (UniProt Q13507); assay: Activation of human TRPC3 expressed in HEK293T cell membrane at 30 uM in presence of OAG; type: cell membranes
[33] = biological target: Short transient receptor potential channel 5 (Homo sapiens) (UniProt Q9UL62); assay: Inhibition of human TRPC5 expressed in HEK293T cell membrane at 30 uM in presence of englerin A; type: cell membranes
[34] = biological target: Short transient receptor potential channel 5 (Homo sapiens) (UniProt Q9UL62); assay: Activation of human TRPC5 expressed in HEK293T cell membrane at 30 uM in presence of englerin A; type: cell membranes
[35] = biological target: Short transient receptor potential channel 6 (Homo sapiens) (UniProt Q9Y210); assay: Inhibition of human TRPC6 expressed in HEK293T cell membrane at 30 uM in presence of OAG; type: cell membranes
[36] = biological target: Short transient receptor potential channel 6 (Homo sapiens) (UniProt Q9Y210); assay: Activation of human TRPC6 expressed in HEK293T cell membrane at 30 uM in presence of OAG; type: cell membranes
[37] = biological target: Short transient receptor potential channel 7 (Homo sapiens) (UniProt Q9HCX4); assay: Inhibition of human TRPC7 expressed in HEK293T cell membrane at 30 uM in presence of OAG; type: cell membranes
[38] = biological target: Short transient receptor potential channel 7 (Homo sapiens) (UniProt Q9HCX4); assay: Activation of human TRPC7 expressed in HEK293T cell membrane at 30 uM in presence of OAG; type: cell membranes
[39] = biological target: G-protein coupled receptor 39 (Homo sapiens) (UniProt O43194); assay: Inhibition of human GPR39 expressed in HEK293T cell membrane at 30 uM in presence of Zn; type: cell membranes
[40] = biological target: G-protein coupled receptor 39 (Homo sapiens) (UniProt O43194); assay: Activation of human GPR39 expressed in HEK293T cell membrane at 30 uM in presence of Zn; type: functional, cell membranes
[41] = biological target: Mas-related G-protein coupled receptor member X1 (Homo sapiens) (UniProt Q96LB2); assay: Inhibition of human MRGPRX1 expressed in HEK293T cell membrane at 30 uM in presence of BAM 8-12; type: cell membranes
[42] = biological target: Mas-related G-protein coupled receptor member X1 (Homo sapiens) (UniProt Q96LB2); assay: Activation of human MRGPRX1 expressed in HEK293T cell membrane at 30 uM in presence of BAM 8-12; type: cell membranes

inhibition [1]: inactive
Activity [2]: inactive
inhibition [3]: inactive
Activity [4]: inactive
inhibition [5]: inactive
Activity [6]: inactive
inhibition [7]: inactive
Activity [8]: inactive
inhibition [9]: inactive
Activity [10]: inactive
inhibition [11]: inactive
Activity [12]: inactive
inhibition [13]: inactive
Activity [14]: inactive
inhibition [15]: inactive
Activity [16]: inactive
inhibition [17]: inactive
Activity [18]: inactive
inhibition [19]: inactive
Activity [20]: inactive
inhibition [21]: inactive
Activity [22]: inactive
inhibition [23]: inactive
Activity [24]: inactive
inhibition [25]: inactive
Activity [26]: inactive
inhibition [27]: inactive
Activity [28]: inactive
inhibition [29]: inactive
Activity [30]: inactive
inhibition [31]: inactive
Activity [32]: inactive
inhibition [33]: inactive
Activity [34]: inactive
inhibition [35]: inactive
Activity [36]: inactive
inhibition [37]: inactive
Activity [38]: inactive
inhibition [39]: inactive
Activity [40]: inactive
inhibition [41]: inactive
Activity [42]: inactive
SMILES: Cc1ccccc1CC1OC(=O)c2cc(C3CCNCC3)ccc21 (configuration not stated)
